Measurements as given in patent US9657009B2, “Heteroaryl substituted pyridyl compounds useful as kinase modulators” (BRISTOL-MYERS SQUIBB COMPANY, priority 2012, dated 2017).
pIC50: −log10 of the molar value.

Chains of the proteins cited; added tags and fusions are not shown.
UniProt Q9NWZ3, whole entry, species assumed: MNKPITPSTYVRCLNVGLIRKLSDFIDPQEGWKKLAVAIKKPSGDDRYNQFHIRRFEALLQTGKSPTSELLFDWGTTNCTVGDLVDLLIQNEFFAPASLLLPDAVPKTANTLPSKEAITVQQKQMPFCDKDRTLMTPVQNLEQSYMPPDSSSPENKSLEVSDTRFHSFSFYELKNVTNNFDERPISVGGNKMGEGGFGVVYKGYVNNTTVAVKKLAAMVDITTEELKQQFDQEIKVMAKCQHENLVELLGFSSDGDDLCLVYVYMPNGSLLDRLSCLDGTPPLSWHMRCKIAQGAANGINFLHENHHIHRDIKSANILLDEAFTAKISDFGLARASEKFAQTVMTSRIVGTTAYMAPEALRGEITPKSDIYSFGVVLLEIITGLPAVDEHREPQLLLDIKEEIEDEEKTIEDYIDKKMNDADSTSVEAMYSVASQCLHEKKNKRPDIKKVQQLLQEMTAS

These molecules were tested against IRAK4 (Homo sapiens (Human), UniProt Q9NWZ3) (assay: IRAK4 Inhibition Assay). Settings: ATP 500 μM; IRAK4 0.6 nM; 60 min at room temperature.
Format: biochemical
Procedure: IRAK4 Inhibition Assay The assays were performed in U-bottom 384-well plates. […] The reaction was initiated by the combination of IRAK4 with substrates and test compounds. The reaction mixture was incubated at room temperature for 60 min. and terminated by adding 45 μL of 35 mM EDTA to each sample.

Row | Structure (SMILES) | pIC50
1 | COC(C)(C)[C@H](F)CNC(=O)c1cnc(Nc2ncc(C#N)cc2F)cc1NC(C)C [Example 36] | 8.48
2 | CC(F)[C@@H](C)Nc1cc(Nc2ncc(C#N)cc2Cl)ncc1C(=O)NC[C@@H](F)C(C)(C)O (some centres unmarked) [Example 159] | 8.24
3 | CC(C)(O)[C@H](F)CNC(=O)c1cnc(Nc2ncc(C#N)cc2Cl)cc1Nc1ccc(-n2cccn2)cc1 [Example 168] | 8.21

More lines, now with the values ahead:

Row | pIC50 | Structure (SMILES)
4 | 8.16 | CC(C)Nc1cc(Nc2ncncc2Cl)ncc1C(=O)NC[C@@H](F)C(C)(C)O [Example 52]
5 | 8.15 | CC(C)(O)[C@H](F)CNC(=O)c1cnc(Nc2ncncc2Cl)cc1NC1CCOCC1 [Example 95]
